Results: patent US20080175878A1

Molecular target: protease for activating the blood clotting factor VII (human) (UniProt Q14520)
Assay: cell-based or functional assay

FVII activation factor in the control (protease + aprotinin, then FVII), protease solution diluted 1:5 (x times control): 1
FVII activation factor in the control (protease + aprotinin, then FVII), protease solution diluted 1:10 (x times control): 1
FVII activation factor in the control (protease + aprotinin, then FVII), protease solution diluted 1:20 (x times control): 1
FVIII activity (% of control), protease incubated with aprotinin prior to contact with FVIII, 0 min: 98%
FVIII activity (% of control), protease incubated with aprotinin prior to contact with FVIII, 5 min: 97%
FVIII activity (% of control), protease incubated with aprotinin prior to contact with FVIII, 10 min: 97%
FVIII activity (% of control), protease incubated with aprotinin prior to contact with FVIII, 20 min: 96%
FVIIa content (Staclot FVIIa-rTF test) after protease + aprotinin, then FVII (mlU of FVIIa/ml): 11
Substance: aprotinin (from UniProt P00974 36-93)
